Test: Solubility in aqueous phosphate buffer at pH 7

| SMILES | solubility in an aqueous phosphate buffer at pH 7 |
| --- | --- |
| CN1C[C@@H]2c3ccccc3Oc3ccc(Cl)cc3[C@H]2C1.CN1C[C@@H]2c3ccccc3Oc3ccc(Cl)cc3[C@H]2C1.O=C(O)c1cc2ccccc2c(Cc2c(O)c(C(=O)O)cc3ccccc23)c1O [crystalline Form I of asenapine hemipamoate] | about 12.6 micrograms/mL |
| CN1C[C@@H]2c3ccccc3Oc3ccc(Cl)cc3[C@H]2C1.CN1C[C@@H]2c3ccccc3Oc3ccc(Cl)cc3[C@H]2C1.O=C(O)c1cc2ccccc2c(Cc2c(O)c(C(=O)O)cc3ccccc23)c1O [crystalline Form II of asenapine hemipamoate] | about 3 micrograms/mL |

Source: patent publication US8658687B2, “Injectable formulations containing asenapine and method of treatment using same” (Merck Sharp & Dohme Corp., priority 2009, dated 2014)
